Target: biotinylated His-Avi-TEAD (194-411) (UniProt P28347)
Assay: SPR (Biacore T100, 25 C), captured biotinylated TEAD, peptide as analyte, steady-state

Kd: 280 nM
B1: peptide of SEQ ID NO: 5 (designed binder)
chain: GSPDEYIERAKECCKKGDIQCCLRYFEESGDPNVMLICAFCP

Reference: US20230151068A1
